Holding throughout (assay): NanoBRET cellular target engagement
Common to all, as to type: cell-based

By UniProt entry, the sequences of proteins in these tests, tags left out.
UniProt P53667, whole entry: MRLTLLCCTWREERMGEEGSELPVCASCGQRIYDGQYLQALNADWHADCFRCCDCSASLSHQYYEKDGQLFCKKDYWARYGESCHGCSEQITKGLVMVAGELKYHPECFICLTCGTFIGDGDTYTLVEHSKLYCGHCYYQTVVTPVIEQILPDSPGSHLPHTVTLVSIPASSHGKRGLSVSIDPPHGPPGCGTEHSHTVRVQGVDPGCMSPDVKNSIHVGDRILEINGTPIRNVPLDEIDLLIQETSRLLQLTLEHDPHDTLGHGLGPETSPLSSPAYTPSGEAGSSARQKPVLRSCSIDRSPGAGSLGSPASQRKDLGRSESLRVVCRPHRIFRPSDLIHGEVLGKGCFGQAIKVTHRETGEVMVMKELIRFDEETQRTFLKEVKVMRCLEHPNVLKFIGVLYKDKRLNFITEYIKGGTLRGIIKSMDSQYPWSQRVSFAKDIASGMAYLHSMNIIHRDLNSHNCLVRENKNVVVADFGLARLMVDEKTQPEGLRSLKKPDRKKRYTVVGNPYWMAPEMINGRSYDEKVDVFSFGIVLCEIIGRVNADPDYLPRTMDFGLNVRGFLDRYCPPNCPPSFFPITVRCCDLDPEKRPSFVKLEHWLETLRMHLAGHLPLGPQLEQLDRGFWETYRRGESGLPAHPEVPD
UniProt Q13546, whole entry: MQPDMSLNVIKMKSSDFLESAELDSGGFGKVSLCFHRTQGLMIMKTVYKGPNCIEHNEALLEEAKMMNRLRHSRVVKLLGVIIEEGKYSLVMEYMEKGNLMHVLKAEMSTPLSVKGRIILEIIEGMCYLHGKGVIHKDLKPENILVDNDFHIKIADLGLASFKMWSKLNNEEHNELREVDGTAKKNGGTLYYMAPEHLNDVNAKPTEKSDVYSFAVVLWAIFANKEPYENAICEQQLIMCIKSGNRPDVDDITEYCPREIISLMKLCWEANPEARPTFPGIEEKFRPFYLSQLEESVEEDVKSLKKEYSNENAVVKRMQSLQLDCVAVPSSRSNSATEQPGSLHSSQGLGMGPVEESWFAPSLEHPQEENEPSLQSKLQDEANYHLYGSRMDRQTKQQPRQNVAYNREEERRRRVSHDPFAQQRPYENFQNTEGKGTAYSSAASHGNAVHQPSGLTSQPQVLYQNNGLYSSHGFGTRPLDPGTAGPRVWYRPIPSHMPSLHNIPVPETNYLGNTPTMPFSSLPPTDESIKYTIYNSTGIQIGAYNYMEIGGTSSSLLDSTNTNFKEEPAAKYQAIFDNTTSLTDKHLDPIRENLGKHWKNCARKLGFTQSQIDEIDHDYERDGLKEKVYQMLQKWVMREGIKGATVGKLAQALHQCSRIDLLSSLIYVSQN
UniProt P53671, whole entry: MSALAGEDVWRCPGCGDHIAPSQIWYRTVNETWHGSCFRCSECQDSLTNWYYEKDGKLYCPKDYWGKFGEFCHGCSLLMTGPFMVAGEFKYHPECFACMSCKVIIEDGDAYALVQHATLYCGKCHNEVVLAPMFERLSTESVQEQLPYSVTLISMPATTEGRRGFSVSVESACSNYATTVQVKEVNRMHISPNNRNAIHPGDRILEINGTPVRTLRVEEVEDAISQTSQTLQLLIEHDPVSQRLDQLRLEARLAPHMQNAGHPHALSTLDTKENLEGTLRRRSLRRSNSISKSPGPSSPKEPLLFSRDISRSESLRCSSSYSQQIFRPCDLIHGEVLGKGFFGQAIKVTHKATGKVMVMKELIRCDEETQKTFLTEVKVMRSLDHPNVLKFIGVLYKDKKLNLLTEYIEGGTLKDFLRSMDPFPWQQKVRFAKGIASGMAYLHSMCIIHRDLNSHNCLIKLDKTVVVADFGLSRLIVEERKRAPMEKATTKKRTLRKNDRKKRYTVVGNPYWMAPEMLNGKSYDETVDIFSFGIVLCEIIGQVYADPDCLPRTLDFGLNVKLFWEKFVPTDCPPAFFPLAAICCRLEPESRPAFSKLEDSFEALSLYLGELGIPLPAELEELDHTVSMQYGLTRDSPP

The target of one assay is LIMK1 (Homo sapiens, UniProt P53667). Particulars: read-out: EC50 (NanoBRET); LIMK1, HEK293T cells.
The target of another assay is RIPK1 (Homo sapiens, UniProt Q13546). Particulars: read-out: EC50 (NanoBRET); RIPK1, HEK293T cells. On the technique in general: Bioluminescence resonance energy transfer reports proximity on the nanometre scale.
A further assay has as its target LIMK2 (Homo sapiens, UniProt P53671). Particulars: read-out: EC50 (NanoBRET); LIMK2, HEK293T cells.

With `CN1C(=O)[C@@H](N2CCc3c(nn(Cc4ccccc4)c3Br)C2=O)COc2ccccc21`, the 50% effective concentration (EC50) (in general, the concentration needed to bring the measured effect to its halfway point) came out at 16 µM on LIMK1, 3.1 nM on RIPK1 and 8.6 µM at LIMK2.

The values are drawn from PMC12090182, “Repurposing of the RIPK1-Selective Benzo[1,4]oxazepin-4-one Scaffold for the Development of a Type III LIMK1/2 Inhibitor” (ACS Chemical Biology, 2025).
